{"sequences": {"note": "Chains of the proteins cited; added tags and fusions are not shown.", "UniProt P35372, whole entry": "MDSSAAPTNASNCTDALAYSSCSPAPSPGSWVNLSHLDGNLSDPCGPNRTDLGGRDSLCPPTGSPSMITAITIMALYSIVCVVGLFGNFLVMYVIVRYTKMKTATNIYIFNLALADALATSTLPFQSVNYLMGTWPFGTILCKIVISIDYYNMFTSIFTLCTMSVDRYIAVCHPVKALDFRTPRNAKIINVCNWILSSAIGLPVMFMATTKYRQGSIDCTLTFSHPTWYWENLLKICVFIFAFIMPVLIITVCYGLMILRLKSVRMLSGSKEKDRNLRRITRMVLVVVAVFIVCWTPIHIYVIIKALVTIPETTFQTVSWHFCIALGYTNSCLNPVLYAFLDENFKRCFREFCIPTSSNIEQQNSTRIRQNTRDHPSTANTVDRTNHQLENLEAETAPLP"}, "source": "paper PMC12621184", "about": "“Synthesis and Pharmacological Characterization of Nociceptin/Orphanin FQ Dimeric Ligands” (Journal of Medicinal Chemistry, 2025)", "key": {"human μ opioid receptor": {"molecular_target": "T1, human μ opioid receptor (Homo sapiens, UniProt P35372)", "T1 construct": "expressed in transfected cells", "assay": "Calcium mobilization assay, CHO cells with μ receptor and chimeric G protein", "assay_type": "cell-based", "details": "standard agonist", "method": "(§1) Chinese hamster ovary (CHO) cells stably coexpressing the human NOP, μ, or κ opioid receptors and the Gαqi5 protein or the human δ and the GαqG66Di5 protein were used in this assay. , Cells were cultured in DMEM/F-12 (1:1) medium supplemented with 10% FBS, 2 mM L-glutamine, […], 100 IU/mL penicillin, and 100 IU/mL streptomycin. Cells were maintained at 37 °C in a humidified atmosphere with 5% CO2 and were seeded at 50 000 cells/well into 96-well black, clear-bottom plates 24 h before test. Loading for 45 min with a solution consisting of HBSS supplemented with 2.5 mM probenecid, 3 μM Fluo-4 AM, and 0.01% pluronic acid ensures the calcium-sensitive dye (Fluo-4) reaches the needed concentration inside the cell, while the exchange of the solution with 100 μL/well of buffer consisting of HBSS with 20 mM HEPES, 2.5 mM probenecid, and 500 μM Brilliant Black allows for fluorescence background to decrease. Serial dilutions of ligands were prepared in HBSS buffer with 20 mM HEPES and 0.02% bovine serum albumin (BSA) to minimize the ligands’ stickiness to plasticware. The automated microplate reader FlexStation II (Molecular Devices, CA, US) was employed at 37 °C to detect changes in fluorescence intensity. The effects of all compounds were expressed as the maximum change in percentage over the baseline fluorescence measured in samples treated with vehicles. […]"}, "human δ opioid receptor": {"molecular_target": "T2, human δ opioid receptor (Homo sapiens, UniProt P41143)", "T2 construct": "expressed in transfected cells", "assay": "Calcium mobilization assay, CHO cells with δ receptor and chimeric G protein", "assay_type": "cell-based", "details": "standard agonist", "method": "as §1"}}, "data": [{"substance": "Dermorphin [reference compound]", "values": [{"measurement": "stimulation of calcium release at μ receptor (in words)", "setting": "human μ opioid receptor", "result": "robust concentration-dependent stimulation of calcium release"}]}, {"substance": "[D-Pen^2,D-Pen^5]enkephalin [DPDPE]", "values": [{"measurement": "stimulation of calcium release at δ receptor (in words)", "setting": "human δ opioid receptor", "result": "robust concentration-dependent stimulation of calcium release"}]}]}
